US20120316137A1, “Methods and Compositions for Treating Cancer” (priority 2009, published 2012)

Tested on: wtFGFR2 Hec1B cells
Assay: Cell growth assay (72 h)
Details: Homo sapiens, HEC-1B, read-out: Cell growth GI50 (nM)

## Cc1ccc(C(=O)Nc2ccc(CN3CCN(C)CC3)c(C(F)(F)F)c2)cc1C#Cc1cnc2cccnn12 [Compound 1, 3-(imidazo[1,2-b]pyridazin-3-ylethynyl)-4-methyl-N-(4-((4-methylpiperazin-1-yl)-methyl)-3-(trifluoromethyl)phenyl)benzamide]
  GI50: 490 nM
